Experimental data taken from patent US20120107309A1, “POLYMORPHISM IN K-RAS 3' UNTRANSLATED REGION ASSOCIATED WITH CLINICAL OUTCOMES OF CANCER TREATMENTS INDEPENDENT OF K-RAS MUTATION STATUS” (University of Southern California, priority 2009, published 2012).

System: mCRC patients
Test: IMC-0144 phase II clinical trial (single agent cetuximab), tumor response by K-ras lcs6 genotype
Assay type: in vivo, human
Experimental: Background: This study was to test whether k-ras lcs 6 SNP may be associated with clinical outcome in 130 mCRC patients enrolled in IMCL-0144 trial and in 186 patients enrolled in EPIC trial independent of K-Ras mutation status in the tumor.
Methods: K-ras lcs 6 SNP was tested in 130 mCRC patients enrolled in IMC-0144 phase II clinical trial (single agent cetuximab) and in 186 mCRC patients enrolled in a second line phase III trial of cetuximab plus irinotecan versus irinotecan alone (EPIC). Genomic DNA was extracted from dissected formalin fixed paraffin embedded tumor tissue and K-ras mutation status and the polymorphism were analyzed using direct sequencing and PCR-RFLP technique. Forward primer: […] (SEQ ID NO. 1). Reverse primer: […] (SEQ ID NO. 2). Annealing temperature was 60° C.

## Cetuximab
Patients with wild type K-ras harboring a G allele (TG+GG) of K-ras lcs6, 12 patients
  partial response (PR) rate: 42%
Patients with wild type K-ras with TT genotype of K-ras lcs6, 55 patients
  partial response (PR) rate: 9%
